Values of other authors, collected in US10329354B2, “Modulation of efferocytosis pathways for treatment of atherosclerotic disease” (The Board of Trustees of the Leland Stanford Junior …, priority 2013, dated 2019).

Target: CD47 (Homo sapiens, UniProt Q08722)
Settings: cited from earlier work

Substance: Hu5F9-G4: humanized anti-CD47 mAb engineered by CDR grafting of mouse sequences into a human IgG4 framework
- binding to CD47: highly selective and highly efficient binding
